Data reported in patent publication US20240229000A1, “METHODS AND COMPOSITIONS THEREOF FOR SITE-[…] LABELING OF HUMAN IgG BY PROXIMITY-BASED SORTASE-MEDIATED LIGATION” (THE TRUSTEES OF THE UNIVERSITY OF PENNSYLVANIA, priority 2021, published 2024).

Tests used:
[1] = molecular target: Human CD64/Fc-gamma Receptor 1 (FcγRI) (Homo sapiens, UniProt P12314); assay: Fc-gamma receptor I binding assay; conditions: coated plate, biotinylated FcγRI at physiological pH, absorbance 450 nm
Experimental: (§1) FIGS. 8A-8D show functional binding properties of the SrtA-generated ADC. […] Labeled cells were imaged at 40× using bright field illumination and fluorescence. […] Cell labeling was measured at 544/585 nm. […] After adding the streptavidin-HRP and TMB substrate, FcRn binding was measured by absorbance at 450 nm. […] The same protocol for FcγRI binding was conducted, but instead, biotinylated FcγRI was applied to the coated plate at neutral pH.
Fc-gamma Receptor/Binding Assay. A transparent 96-well half-area plate (Corning) was coated using the same protocol described for the FcRn binding assay. The next day, the plate was washed four times with Wash Buffer 1 (1×TBS, 0.05% Tween 20, pH 7.4) and then blocked with Blocking Buffer (2% BSA in Wash Buffer 1, pH 7.4) at 4° C. for 1.5 hours. Wash steps were repeated. Biotinylated Human CD64/Fc-gamma Receptor 1 (FcγRI) diluted in Dilution Buffer (0.5% BSA in Wash Buffer 1) was added to Cetuximab-Ahx-vcMMAE- and Cetuximab-coated wells in duplicate at a starting concentration of 100 ng/mL, which was serially diluted two-fold to 0.78 ng/mL. Duplicate negative control wells with Dilution Buffer only were also included for each condition. […] After 10 min, the TMB reaction was stopped using 2 M sulfuric acid, and the plate was measured for absorbance at 450 nm using a Tecan M200 Infinite plate reader. Data were analyzed using GraphPad Prism.

EGFR+ MDA-MB 468 cells [2] = assay: Fixed cell-surface ligand binding assay; conditions: PE-goat anti-human secondary antibody, 544/585 nm
Experimental: as §1
Fixed Cell-Surface Ligand Binding Assay. MDA-MB 468 cells were seeded in black, transparent-bottom plates (Corning) at a density of 10,000 cells per well. Once 70-80% confluency was reached, cells were fixed with neutral buffered formalin solution (Sigma-Aldrich) for 15 min and then washed three times with PBST (1×PBS, 0.05% Tween 20). Cells were blocked with 10% Normal Goat Serum (Life Technologies) for 15 min and washed three times again with PBST. […] Triplicate negative control wells with only Blocking Buffer were also included. The same triplicate dilutions for Cetuximab alone were also added to adjacent wells in parallel. After binding for 1 hour covered while shaking, wash steps were repeated. […] Fluorescent signal was measured at 544/585 nm on a Tecan M200 Infinite plate reader. […] Normalized data was analyzed using GraphPad Prism to calculate the binding affinity constants (KD).

EGFR+ MDA-MB 468 cells [3] = assay: Fluorescence microscopy of labeled fixed cells; type: cell-based; conditions: 60 nM, 1 hour, fixed MDA-MB 468 cells
Experimental: as §1
Fluorescence Microscopy. MDA-MB 468 cells were passaged in Dulbecco's Modified Eagle Medium (DMEM) supplemented by 10% fetal bovine serum (FBS) and 5% penicillin-streptomycin. A total of 125,000 cells were seeded per well on a 48-well tissue culture plate (Falcon). After 24 hours, cells were fixed for 15 min using neutral buffered formalin solution (Sigma-Aldrich) and then washed three times with PBST (1×PBS, 0.05% Tween 20). Fixed cells were then resuspended in PBST and blocked with 10% Normal Goat Serum (Life Technologies) for 15 min. After blocking, wash steps were repeated. […] After, cells were washed again to remove excess Cetuximab-Ahx-vcTAMRA or Cetuximab and then resuspended in PBST. Imaging was performed on an Olympus IX81 and then analyzed on ImageJ.

MDA-MB 468 cells = assay: Cytolysis assay, xCELLigence Real-Time Cell Analysis (RTCA); type: cell-based; conditions: 96 hours
Experimental: FIGS. 9A-9B show in vitro cytolytic activity of the SrtA-generated ADC. […] The xCELLigence Real-Time Cell Analysis (RTCA) system was used to monitor cytolysis for each cell line. […] After 96 hours, cell viability was measured.
Cytolysis Assay. Cytolysis assays were performed using the xCELLigence Real-Time Cell Analyzer (RTCA) system (ACEA Biosciences), which measures the electrical impedance, or cell index, from adherent cells to quantify cell proliferation. Both MDA-MB 468 and A431 cell lines, which overexpress epidermal growth factor receptor (EGFR), were assayed. All cell lines were cultured in DMEM supplemented with 10% FBS and 5% penicillin-streptomycin. First, a 96-well Electronic Microtiter Plate (ACEA Biosciences) was scanned with media only to get a background reading using the xCELLigence RTCA instrument. Cells were then seeded at a density of 5000 cells per well and left at room temperature for 30 min to allow the cells to settle before placing the plate back into the instrument. […] This value was determined by calculating the amount of cell killing (difference between the cell indexes of treated and untreated cells) and then dividing by the cell index of untreated cells (no cytolysis). The data was analyzed using GraphPad Prism to calculate the EC50, or the drug concentration that yields a half-maximal cytolytic response.

Row | Substance | FcγRI binding [1] | binding affinities (KD) to MDA-MB 468 cells (EGFR+ MDA-MB 468 cells [2]) | staining of fixed cells under fluorescence (EGFR+ MDA-MB 468 cells [3]) | cytolytic activity (killing of cells) (MDA-MB 468 cells)
1 | Cetuximab-Ahx-vcMMAE: Cetuximab conjugated with MMAEvc-Ahx-LPETG via 1M SrtA-pZ isopeptide ligation; site-specific ADC | comparable | very similar |  | 
2 | Cetuximab-Ahx-vcTAMRA: Cetuximab conjugated with TAMRAvc-Ahx-LPETG via 1M SrtA-pZ isopeptide ligation |  |  | positive staining on the cell surface | 
3 | Cetuximab: human IgG1 antibody that targets the epidermal growth factor receptor (EGFR) [reference compound] | comparable | very similar |  | little to no killing
